From patent US7368471B2, “Substituted indole acid derivatives as inhibitors of plasminogen activator inhibitor-1 (PAI-1)” (Wyeth, priority 2001, dated 2008)

Chains of the proteins cited; added tags and fusions are not shown. Residues count along the entry.
UniProt P05121, 24-402: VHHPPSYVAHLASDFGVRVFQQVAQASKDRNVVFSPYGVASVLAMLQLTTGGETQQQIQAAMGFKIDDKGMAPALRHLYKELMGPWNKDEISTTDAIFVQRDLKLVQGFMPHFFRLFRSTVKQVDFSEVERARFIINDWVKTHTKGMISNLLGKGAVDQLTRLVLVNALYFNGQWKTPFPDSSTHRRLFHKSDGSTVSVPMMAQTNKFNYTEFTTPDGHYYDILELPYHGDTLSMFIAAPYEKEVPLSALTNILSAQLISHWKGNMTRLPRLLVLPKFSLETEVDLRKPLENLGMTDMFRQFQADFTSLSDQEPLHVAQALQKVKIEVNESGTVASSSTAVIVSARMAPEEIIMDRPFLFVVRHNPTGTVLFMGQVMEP

Target: human PAI-1 (Homo sapiens, UniProt P05121)
Assay: Antibody Assay for Determining IC50 of Inhibition of PAI-1 (active PAI-1 bound to tPA-coated plate, 33B8 antibody)
Type: binding
Conditions: footnote a: determined by the Antibody Assay
Experimental: Assay for Determining IC50 of Inhibition of PAI-1
This assay is based upon the non-SDS dissociable interaction between tPA and active PAI-1. Assay plates are initially coated with human tPA (10 μg/ml). Test compounds are dissolved in DMSO at 10 mM, then diluted with physiologic buffer (pH 7.5) to a final concentration of 1-50 μM. Test compounds are incubated with human PAI-1 (50 ng/ml) for 15 minutes at room temperature. The tPA-coated plate is washed with a solution of 0.05% Tween 20 and 0.1% BSA, then the plate is blocked with a solution of 3% BSA. An aliquot of the test compound/PAI-1 solution is then added to the tPA-coated plate, incubated at room temperature for 1 hour, and washed. Active PAI-1 bound to the plate is assessed by adding an aliquot of a 1:1000 dilution of the 33B8 monoclonal antibody against human PAI-1, and incubating the plate at room temperature for 1 hour (Molecular Innovations, Royal Oak, Mich.). […] The plate is incubated 45 minutes at room temperature, and color development is determined at OD405nm. The quantitation of active PAI-1 bound to tPA at varying concentrations of the test compound is used to determine the IC50. Results are analyzed using a logarithmic best-fit equation. The assay sensitivity is 5 ng/ml of human PAI-1 as determined from a standard curve ranging from 0-100 ng/ml.

For `O=C(O)C(=O)c1cn(Cc2ccccc2)c2ccc(-c3ccc(OC(F)(F)F)cc3)cc12` [Example 12, {1-Benzyl-5-[4-(trifluoromethoxy)phenyl]-1H-indol-3-yl}(oxo)acetic acid], the IC50 was 2700 nM.
